Measurements from PubChem BioAssay AID1481 (The Scripps Research Institute Molecular Screening Center, 2009).
Only a part is listed here, and it is no random draw. Activity calls are given as the source filed them. Rule as the data show it: active = inhibition above about 15%; inactive = the rest.

Amino acid sequences for entries named in this document (tags omitted).
UniProt P55072, whole entry, looked up: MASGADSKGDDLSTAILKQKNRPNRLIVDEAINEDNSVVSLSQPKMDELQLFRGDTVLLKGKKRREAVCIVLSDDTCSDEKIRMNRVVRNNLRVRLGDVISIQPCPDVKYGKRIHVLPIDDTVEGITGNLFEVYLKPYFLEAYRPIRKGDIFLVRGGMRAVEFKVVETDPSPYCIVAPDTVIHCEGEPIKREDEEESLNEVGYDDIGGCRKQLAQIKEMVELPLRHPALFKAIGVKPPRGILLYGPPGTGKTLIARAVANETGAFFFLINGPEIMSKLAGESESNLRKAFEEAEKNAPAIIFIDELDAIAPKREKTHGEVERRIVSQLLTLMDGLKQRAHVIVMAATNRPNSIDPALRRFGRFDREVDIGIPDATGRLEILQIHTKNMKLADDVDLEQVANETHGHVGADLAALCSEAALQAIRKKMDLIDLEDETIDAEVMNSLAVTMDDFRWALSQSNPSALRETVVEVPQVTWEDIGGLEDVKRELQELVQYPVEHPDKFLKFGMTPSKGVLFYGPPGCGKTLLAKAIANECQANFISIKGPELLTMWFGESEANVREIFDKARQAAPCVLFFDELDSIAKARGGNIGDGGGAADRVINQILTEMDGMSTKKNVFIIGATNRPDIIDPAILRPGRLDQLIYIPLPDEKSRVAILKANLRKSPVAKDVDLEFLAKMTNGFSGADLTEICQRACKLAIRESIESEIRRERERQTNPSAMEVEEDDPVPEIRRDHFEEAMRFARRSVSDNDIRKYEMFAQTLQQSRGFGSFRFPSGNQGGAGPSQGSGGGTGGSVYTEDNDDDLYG

These compounds were tested against Transitional endoplasmic reticulum ATPase (Homo sapiens) (UniProt P55072) (assay: p97 ATP hydrolysis blockers – biochemical, primary screen (AID 1481;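 also: 0% = DMSO vehicle and 100% = wells lacking enzyme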)). Conditions: recombinant p97 ATPase, Kinase-Glo ATP luminescence, 3 h; at 8 µM; active compounds read high.
For CC(=O)NC(SC(=S)N(CC(C)C)CC(C)C)C(Cl)(Cl)Cl (stereo not given), the inhibition was inactive: -6.97%. Cc1ccc(OP(=O)(Nc2ccccn2)Oc2ccc(C)cc2)cc1 was tested, and the inhibition was inactive: 2.45%. With Cc1ccccc1OP(=O)(Nc1ccccn1)Oc1ccccc1C the inhibition was inactive: -3.42%. CN(C)C(=O)Oc1noc2ccccc12 was tested, and the inhibition was inactive: 8.64%. With O=c1c2cc([N+](=O)[O-])ccc2[nH]c2c([N+](=O)[O-])cc([N+](=O)[O-])cc12 the inhibition was inactive: 8.48%. c1ccc(-c2nn[nH]n2)c(-c2nn[nH]n2)c1 was tested, and the inhibition was inactive: 4.25%. For Cc1ccc(NP(=O)(Oc2cccc(C)c2)Oc2cccc(C)c2)nc1, the inhibition was inactive: -2.1%. In the case of CCNC(=S)/N=C(\N)N[N+](=O)[O-], the inhibition is reported as inactive: 2.34%. In the case of O=C(NC1CCS(=O)(=O)C1)NP(=S)(Oc1ccccc1)Oc1ccccc1 (stereo not given), the inhibition is reported as inactive: -1.47%. For O=[As](O)(c1ccccc1)c1ccc(O)cc1, the inhibition was inactive: -4.66%. In the case of CC(=O)NC(SC(=S)N(C)C)C(Cl)(Cl)Cl (stereo not given), the inhibition is reported as inactive: 7.39%. In the case of O=[N+]([O-])c1ncn(CCn2cnc([N+](=O)[O-])n2)n1, the inhibition is reported as inactive: 2.51%. With O=C(OC1CN2CCC1CC2)c1cccc(Cl)c1 (stereo not given) the inhibition was inactive: 0.64%. In the case of Nc1ccc([As](=O)(O)c2ccc([N+](=O)[O-])cc2)cc1, the inhibition is reported as inactive: 10.4%. With C(Cc1nn[nH]n1)Cc1nn[nH]n1 the inhibition was inactive: 3.87%. In the case of O=P(Nc1ccccn1)(c1ccc(Br)cc1)c1ccc(Br)cc1, the inhibition is reported as inactive: -1.26%. In the case of O=P(Nc1nc2ccccc2s1)(c1ccccc1)c1ccccc1, the inhibition is reported as inactive: -5.2%. In the case of CC(C)C(=O)NC(Sc1ccccc1)C(Cl)(Cl)Cl (stereo not given), the inhibition is reported as inactive: 0.8%. O=P(Nc1nccs1)(c1ccccc1)c1ccccc1 was tested, and the inhibition was inactive: 2.26%. With c1nnnn1CCn1cnnn1 the inhibition was inactive: 2.72%.
